# From EP1382597A2, “Steroid receptor modulator compounds and methods” (LIGAND PHARMACEUTICALS, INC., priority 1994, dated 1996)
# Target: T1, AR (Rattus norvegicus, UniProt P15207)
# T1 construct: from tissue; host or cells: live Sprague-Dawley rats; ventral prostate and seminal vesicles weighed
# T1 sequence (P15207 1-902): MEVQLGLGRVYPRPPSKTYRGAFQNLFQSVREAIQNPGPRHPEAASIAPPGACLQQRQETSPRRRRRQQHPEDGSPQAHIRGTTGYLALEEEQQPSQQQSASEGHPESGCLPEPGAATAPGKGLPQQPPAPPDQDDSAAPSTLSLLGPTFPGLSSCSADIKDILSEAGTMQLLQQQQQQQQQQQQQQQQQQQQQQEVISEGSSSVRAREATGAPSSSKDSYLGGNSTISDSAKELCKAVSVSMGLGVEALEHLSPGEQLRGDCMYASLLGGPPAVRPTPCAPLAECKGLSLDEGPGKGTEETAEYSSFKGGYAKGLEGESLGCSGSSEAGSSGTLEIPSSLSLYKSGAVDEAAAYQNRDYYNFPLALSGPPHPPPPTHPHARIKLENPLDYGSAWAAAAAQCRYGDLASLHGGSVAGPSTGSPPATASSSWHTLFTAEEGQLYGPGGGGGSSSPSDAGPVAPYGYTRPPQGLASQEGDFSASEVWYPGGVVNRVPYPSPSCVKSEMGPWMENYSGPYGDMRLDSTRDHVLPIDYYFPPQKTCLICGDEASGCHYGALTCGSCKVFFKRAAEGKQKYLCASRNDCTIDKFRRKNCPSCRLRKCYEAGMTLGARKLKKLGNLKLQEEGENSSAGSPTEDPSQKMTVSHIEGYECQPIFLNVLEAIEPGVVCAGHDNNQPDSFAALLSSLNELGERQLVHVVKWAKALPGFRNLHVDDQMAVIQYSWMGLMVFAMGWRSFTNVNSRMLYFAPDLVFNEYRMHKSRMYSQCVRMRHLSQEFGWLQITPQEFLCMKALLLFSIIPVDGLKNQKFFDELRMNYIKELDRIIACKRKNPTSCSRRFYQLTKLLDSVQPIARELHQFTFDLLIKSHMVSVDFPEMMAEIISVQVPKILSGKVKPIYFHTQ
# Assay: Immature castrated male rat model (antiandrogen activity)
# Format: in vivo, rats (Sprague-Dawley)
# Conditions: TP versus free testosterone
structure (smiles),measurement,value
"CCC(=O)O[C@H]1CC[C@H]2[C@@H]3CCC4=CC(=O)CC[C@]4(C)[C@H]3CC[C@]12C [TP, Testosterone Propionate]",potency relative to free T,10-30 fold
